Reference: PubChem BioAssay AID881 (National Center for Advancing Translational Sciences (NCATS), 2007)
The list shows a part of the results, in another mix than the full data. Activity calls are given as the source filed them. The call rests on the fitted dose curve; in most records, active means well fitted inhibition curve with a large enough effect; inconclusive means small, poorly fitted or top-dose-only effect; inactive means no such curve, though single readings can be large or run the other way. A call without a number means that no potency is given here.

Amino acid sequences for entries named in this document (tags omitted). A change or cut given only in a name is not applied to a line headed by its entry.
UniProt O15296: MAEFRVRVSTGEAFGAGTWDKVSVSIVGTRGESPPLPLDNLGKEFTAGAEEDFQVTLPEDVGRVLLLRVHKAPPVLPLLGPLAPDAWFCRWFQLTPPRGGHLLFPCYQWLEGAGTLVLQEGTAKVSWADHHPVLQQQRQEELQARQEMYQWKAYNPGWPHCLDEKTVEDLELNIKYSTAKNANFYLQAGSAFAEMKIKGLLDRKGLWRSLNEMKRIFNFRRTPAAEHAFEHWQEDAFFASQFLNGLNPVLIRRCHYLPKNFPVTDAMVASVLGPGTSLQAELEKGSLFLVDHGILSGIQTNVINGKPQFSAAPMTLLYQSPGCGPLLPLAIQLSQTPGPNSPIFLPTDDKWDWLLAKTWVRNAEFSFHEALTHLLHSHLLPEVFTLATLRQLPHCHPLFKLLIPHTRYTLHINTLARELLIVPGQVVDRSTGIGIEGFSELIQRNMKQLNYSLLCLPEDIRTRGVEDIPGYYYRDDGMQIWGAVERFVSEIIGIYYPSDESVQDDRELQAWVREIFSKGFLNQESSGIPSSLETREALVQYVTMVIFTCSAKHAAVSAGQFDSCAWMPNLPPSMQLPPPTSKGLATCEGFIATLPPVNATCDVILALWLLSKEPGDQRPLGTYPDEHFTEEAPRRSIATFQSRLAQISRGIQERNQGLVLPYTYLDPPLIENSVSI

target: Polyunsaturated fatty acid lipoxygenase ALOX15B (Homo sapiens) (UniProt O15296); assay: qHTS Assay for Inhibitors of 15-hLO-2 (15-human lipoxygenase 2); details: purified 15hLO-2, xylenol orange hydroperoxide absorbance; series mostly up to 57.1 µM; further: nearly all actives have a fitted effect of over 60% in size
Source text: Assay Overview: NIH Molecular Libraries Screening Centers Network [MLSCN] NIH Chemical Genomics Center [NCGC] MLSCN Grant: MH081283-01A1 PI Name: Holman, T.R., University of California, Santa Cruz Human lipoxygenase 15hLO-2 is a member of the closely related lipoxygenase family of enzymes which catalyze the site-specific oxidation of arachidonic acid to various hormone precursor molecules and as such is a candidate for drug development in a variety of disease areas, such as cancer and inflammation. Inhibition of 15hLO-2 activity was screened by utilizing arachidonic acid as a substrate. The extent of hydroperoxide product formation was measured by a secondary chromogenic reaction in which xylenol orange (XO, Sigma-Aldrich, cat. number 39,818-7) reacts with the ferric ions produced from the reaction between the hydroperoxide and ferrous ions. The Fe(III)-XO complex is characterized with red-shifted absorbance at 560 nm. A purified preparation of human 15hLO-2 was supplied by Professor Ted Holman, University of California, Santa Cruz.
Assay Protocol: Buffer: 25 mM Hepes pH 7.5, 0.01% Triton X-100. Reagents/Controls: Buffer in columns 3 and 4 as negative control (no enzyme). Substrate solution: 45 uM arachidonic acid (Sigma-Aldrich, St. Louis, MO) final concentration dispensed throughout the plate. Enzyme: 50 nM 15hLO-2 final concentration in columns 1, 2, 5-48. Column 1 is neutral (100% activity). Column 2 contained pin-transferred titration of NDGA (nordihidroguaiaretic acid, Sigma-Aldrich, N 5023, top concentration 10 mM in DMSO, then 1:2 dilution in duplicate). (Dilution factor: 23 nL into 4 uL.) Chromogenic detection reagent (divalent iron/xylenol orange, Fe-XO): 200 uM xylenol orange plus 300 uM ferrous ammonium sulfate prepared freshly in 50 mM sulfuric acid. Assay Steps: Three uL of enzyme were dispensed to 1536-well Greiner black clear bottom plates. Compounds and controls (23 nL) were transferred via Kalypsys PinTool. The plates were incubated for 15 min at room temperature, and then 1 uL of substrate solution was added to start the reaction. After room temperature incubation for 90 minutes, 4 uL of Fe-XO solution was added to each well followed by a short spin (1000 rpm, 15 sec) and the plates were then incubated for 30 min. The absorbance at 405 and 573 nm were measured using ViewLux (Perkin-Elmer) High-throughput CCD imager and absorbance protocol settings. The 573-to-405 absorbance ratio was used to compute reaction progress.
Potency means the concentration at half of the fitted maximal effect.

SMILES | activity change, negative = inhibition | Potency
O=P1(Nc2nc3ccc(Cl)cc3s2)COc2ccccc2O1 (centres undefined) | inactive | –
CCOC(=O)NC(Sc1ccccc1)C(Cl)(Cl)Cl (centres undefined) | inactive | –
COC(=O)c1cc2c(s1)N=C(c1ccccc1)N(C)P2(=O)N1CCOCC1 (centres undefined) | inactive | –
CCC(=O)N1C2C3N(C(=O)CC)C1C1N(C(=O)CC)C(C(N1C(=O)CC)N3C(=O)CC)N2C(=O)CC | inactive | –
Cc1cc([N+](=O)[O-])cc([N+](=O)[O-])c1O | inactive | –
[N-]=[N+]=Nc1ccc([As](=O)(O)O)cc1 | inactive: -8.4% [at 11.4 µM] | –
O=C(OC1CN2CCC1CC2)c1cccc(Cl)c1 (centres undefined) | inactive | –
c1nnnn1CCn1cnnn1 | inactive | –
O=P(Nc1nccs1)(c1ccccc1)c1ccccc1 | inactive | –
C[C@@H](O)COc1ccc([As](=O)(O)O)cc1N | inactive: -2.72% [at 11.4 µM] | –
CN1CCC[C@H](OC(=O)C(c2ccccc2)c2ccccc2)C1 | inactive: -0.424% [at 11.4 µM] | –
O=[N+]([O-])c1cccc2n[nH]nc12 | inactive | –
CC(=O)N1C2C3N(C(C)=O)C1C1N(C(C)=O)C(C(N1C(C)=O)N3C(C)=O)N2C(C)=O | inactive | –
CCc1nc2c(n1)c1c(non1O)c1c2no[n+]1[O-] | inactive | –
O=C(CO)Nc1ccc([As](=O)(O)O)cc1 | inactive: -3.47% [at 11.4 µM] | –
CC(=O)C1=CCCC2CCC1N2 (centres undefined) | inactive: -2.43% [at 0.0915 µM] | –
CC1CCN(C(=O)Oc2c(Cl)cc(Cl)c3cccnc23)CC1 | inactive | –
CN(C(=O)Cc1ccccc1)[C@@H]1CC[C@@]2(CCCO2)C[C@H]1N1CCCC1 | inactive | –
CCOP(=O)(Nc1ccccc1)OCC | inactive | –
CN(C(=O)Cc1ccc(Cl)c(Cl)c1)[C@H]1CCCC[C@@H]1N1CCCC1 | inactive | –
C(Cc1nn[nH]n1)c1nn[nH]n1 | inactive: -1.78% [at 11.4 µM] | –
[N-]=[N+]=NCC(O)CN=[N+]=[N-] (centres undefined) | inactive: 4.78% [at 11.4 µM] | –
O=[N+]([O-])c1ccc(C[As](=O)(O)O)cc1 | inactive: -11.1% [at 11.4 µM] | –
NCC[C@@H](N)CSP(=O)(O)O | inactive: -2.44% [at 11.4 µM] | –
CC(C)CC(=O)NC(Sc1ccc(Cl)cc1)C(Cl)(Cl)Cl (centres undefined) | inactive | –
Oc1ccccc1CNc1ccccn1 | inactive | –
Cc1c2non([O-])c-2c(C)[n+](=O)[n+]1[O-] | inactive | –

SMILES | activity change, negative = inhibition | Potency
NC(=O)Nc1cc([As](=O)(O)O)cc(I)c1O | inactive: -1.48% [at 11.4 µM] | –
O=C(OC1CN2CCC1CC2)C12CC3CC(CC(C3)C1)C2 (centres undefined) | inactive | –
CCN(CC)C(=S)SC(NC=O)C(Cl)(Cl)Cl (centres undefined) | inactive | –
[N-]=[N+]=NCC(N)=O | inactive: 12% [at 11.4 µM] | –
O=[As]c1ccc(S(=O)(=O)NCCO)cc1 (centres undefined) | inactive: -0.712% [at 11.4 µM] | –
CN(N=O)C(=N)N[N+](=O)[O-] | inactive | –
O=C(COc1ccccc1)OC1CN2CCC1CC2 (centres undefined) | inactive | –
O=C(O)[C@@H](O)c1ccc([As](=O)(O)O)cc1 | inactive: -4.27% [at 11.4 µM] | –
COP1(=S)c2c(C)nn(CCC#N)c2N=C(c2ccc(F)cc2)N1C (centres undefined) | inactive | –
Clc1n[nH]nc1-c1nn[nH][15n]1 | inactive | –
CN(CCCl)Cc1cc(Cl)c(NC2=NCCN2)c(Cl)c1 | inactive | –
O=P1(Nc2ccccn2)COc2ccccc2OC1 | inactive | –
CN(C(=O)Cc1ccc(Cl)c(Cl)c1)[C@@H]1CCCC[C@H]1N1CCCC1 | inactive | –
Cc1nn(-c2ccccc2)c2c1P(=O)(N1CCOCC1)N(C)C(c1ccccc1)=N2 (centres undefined) | inactive | –
Cc1ccc(OCC(=O)OC2CN3CCC2CC3)cc1 (centres undefined) | inactive: -1.36% [at 11.4 µM] | –
O=P1(Nc2ccc(Br)cn2)COc2ccccc2OC1 | inactive | –
O=P1(Nc2ncccn2)COc2ccccc2OC1 | inactive | –
O=[As](O)(O)c1ccc([As](=O)(O)O)cc1 | inactive: -3.87% [at 11.4 µM] | –
CCOP1(=S)c2c(C)nn(CCC#N)c2N=C(c2ccccc2F)N1C (centres undefined) | inactive | –
O=P(Nc1nccs1)(c1ccccc1)c1nc2ccccc2s1 (centres undefined) | – | active: 7.94 µM
O=[N+]([O-])c1ccc2c(c1)nnn2O | inactive | –
CCOP1(=S)c2c(C)nn(CCC#N)c2N=C(c2ccc(F)cc2)N1C (centres undefined) | inactive | –
NC(=O)Nc1ccc([As](=O)(O)O)cc1 | inactive | –
Cc1cccc(OCC(=O)OC2CN3CCC2CC3)c1 (centres undefined) | inactive | –
CN(C(=O)Cc1ccc(Cl)c(Cl)c1)[C@@H]1CC[C@@]2(CCCO2)C[C@H]1N1CCCC1 | inactive | –
NS(=O)(=O)Cc1ccc([As](=O)(O)O)cc1 | inactive: 4.25% [at 11.4 µM] | –
O=C(CC(=O)c1ccccc1)O[C@H]1CN2CCC1CC2 | inactive: -0.145% [at 11.4 µM] | –
